Measurements reported in patent publication US20060019966A1, “Method for treating nervous system disorders and conditions” (Wyeth, priority 2004, published 2006).

Assays:
hNET transporter = hNET transporter (UniProt Q9WTR4); assay: Norepinephrine reuptake inhibition at the norepinephrine transporter; assay type: biochemical, human; conditions: in vitro, homogenized rat brain
hSERT transporter = hSERT transporter (UniProt P31652); assay: Serotonin reuptake inhibition at the serotonin transporter; assay type: biochemical, human; conditions: in vitro, homogenized rat brain

IC50 (hNET transporter): 440 nM | IC50 (hSERT transporter): 170 nM
SMILES: Fc1ccc(C(OCCN2CCN(CCCc3ccccc3)CC2)c2ccc(F)cc2)cc1 [1-[2-[bis(4-fluorophenyl)methoxy]ethyl]-4-(3-phenylpropyl)piperazine]
